Earlier results on 1 compound are cited in patent publication US20210145846A1 (published 2021).

Chains of the proteins cited; added tags and fusions are not shown.
UniProt P03372, whole entry, species assumed: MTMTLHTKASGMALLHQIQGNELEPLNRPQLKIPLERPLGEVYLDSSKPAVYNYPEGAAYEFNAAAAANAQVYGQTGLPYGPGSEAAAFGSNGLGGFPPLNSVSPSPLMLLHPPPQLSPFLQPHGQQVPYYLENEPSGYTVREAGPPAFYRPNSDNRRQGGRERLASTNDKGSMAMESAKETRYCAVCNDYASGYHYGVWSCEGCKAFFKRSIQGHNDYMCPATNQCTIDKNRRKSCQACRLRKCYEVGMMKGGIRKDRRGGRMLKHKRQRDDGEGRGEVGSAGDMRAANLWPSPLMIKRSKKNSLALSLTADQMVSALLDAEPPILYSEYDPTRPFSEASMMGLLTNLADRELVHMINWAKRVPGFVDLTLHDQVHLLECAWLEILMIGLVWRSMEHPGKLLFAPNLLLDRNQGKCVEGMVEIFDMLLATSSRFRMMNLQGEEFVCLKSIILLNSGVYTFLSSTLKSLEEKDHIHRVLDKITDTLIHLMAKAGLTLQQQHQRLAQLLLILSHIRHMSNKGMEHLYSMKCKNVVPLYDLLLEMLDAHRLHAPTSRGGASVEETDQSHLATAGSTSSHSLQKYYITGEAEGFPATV

Molecules are shown by their SMILES.

The data set concerns the target estrogen receptor (ER) (Homo sapiens, UniProt P03372). The following applies: competitive ER antagonist; cited from earlier work.

As to `C[C@]12CC[C@@H]3c4ccc(O)cc4C[C@@H](CCCCCCCCC[S+]([O-])CCCC(F)(F)C(F)(F)F)[C@H]3[C@@H]1CC[C@@H]2O` (stereo partly drawn) [Fulvestrant, 7α-[9-[(4,4,5,5,5-pentafluoropentyl)sulfinyl]nonyl]-estra-1,3,5(10)-triene-3,17β-diol], the “Affinity for estrogen receptor” value is given as “comparable to that of estradiol”.
